Drawing on paper PMC5762261 (Archives of biochemistry and biophysics, 2017), this text covers Km for one substance.

For orientation: Km means the substrate concentration at which the rate is half of its maximum.

For this series, the system named is NC(=O)c1cccnc1. Kind of series: 14C-nicotinamide base exchange assay. Format: biochemical, human. The settings on record: other: NAM varied, 1 mM p53K382Ac, 800 μM NAD+; pH 7.5; 37.0 °C.

Consider SIRT6 (Homo sapiens), for which the Km was 1820 ± 500 µM.
